In paper PMC2978023 (Journal of immunology (Baltimore, Md. : 1950), 2008):

Assays:
[1] = biological target: recombinant purified β2 subunit (Homo sapiens, UniProt P05107); assay: Solid-phase binding to purified β2 subunit
How it was run: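 Purified recombinant αMβ2, αM or β2 (from HEK293 lines) was coated overnight at 4°C in TBS with 10 mM n-octyl-β-D-glucopyranoside and postcoated with 0.5% PVP for 1 h at 37°C. Biotinylated Plg or Ang(1–4) (0–10 μM) was bound for 2 h at 37°C in the same buffer plus 1 mM CaCl₂/MgCl₂. Binding was detected with alkaline phosphatase–avidin and pNPP at A405. Kd came from a one-site binding fit.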

[2] = tested on: human PMNs; conditions: 16 h, 100 μM

Kd [1]: > 100 µM
Compound: CC(C)C[C@H](NC(=O)[C@H](CCCNC(=N)N)NC(=O)[C@H](CCCCN)NC(=O)[C@H](CCC(N)=O)NC(=O)[C@H](Cc1ccccc1)NC(=O)[C@@H](NC(=O)[C@@H](NC(=O)[C@H](Cc1c[nH]c2ccccc12)NC(=O)CN)[C@@H](C)O)C(C)C)C(=O)N[C@@H](CC(=O)O)C(=O)NCC(=O)N[C@@H](CO)C(=O)N[C@H](C(=O)O)C(C)C [P1]
PMN early/late apoptosis (% annexin V+ cells), no inhibitor [2]: 56.1 ± 13%
